Results as given in PubChem BioAssay AID651644 (National Center for Advancing Translational Sciences (NCATS), 2012).
This list holds what a sample rich in hits left over. Active and inactive are the calls of the source. Calls come from the whole dose curve; as a rule, active = well fitted falling curve with a large enough effect; inconclusive = small, poorly fitted or top-dose-only effect; inactive = no such curve, though single readings can be large or run the other way.

assay: qHTS Assay for Inhibitors of the HIV-1 protein Vpr; note: nearly all actives have a fitted effect of over 50% in size; conditions: S. pombe RE007 Vpr strain, BacTiter-Glo ATP luminescence, 24 h; at 92.2 µM (top of the series)
Text: Human immunodeficiency virus type 1 (HIV-1), the causative agent of AIDS, contains a protein called viral protein R (Vpr) that plays an important role in the viral life cycle and the pathogenesis of HIV-1.
These Vpr specific activities include cytoplasmic-nuclear shuttling, induction of cell cycle G2 arrest and cell killing. The cytoplasmic-nuclear shuttling is believed to participate in nuclear transport of the proviral integration complex (PIC). The cell cycle G2 arrest induced by Vpr is thought to suppress human immune functions by preventing T cell clonal expansion and to provide an optimized cellular environment for maximal levels of viral replication. In addition, Vpr induces apoptosis, which may contribute to the depletion of CD4 T cells in HIV-infected patients. Since the Vpr-specific activities have been linked to such clinical manifestation of AIDS as activation of viral replication, suppression of host immune responses and depletion of CD4+ T-lymphocytes, identification of new molecular probes that can inhibit the Vpr activities could potentially provide a new approach to reduce Vpr-mediated detrimental effects in HIV-infected patients, and thus prolong patient's lives. Currently, there are no anti-Vpr drugs.
A fission yeast (Schizosaccharomyces pombe) model system for the Vpr studies has been developed which measures HIV-1 Vpr-induced cell death. […]
% is set by controls: 0 for no effect and ±100 for the full control effect.

Row | SMILES | activity change, negative = less growth
1 | CC(=O)C1CCC2C3CC=C4CC(SC(=N)N)CCC4(C)C3CCC12C (stereo unspecified) | inactive: 49.3%
